The chains behind the UniProt entries cited, without tags or fusion partners. Where a name states a change or a piece, a line headed by the entry shows the natural chain unless it says otherwise.
UniProt P41144: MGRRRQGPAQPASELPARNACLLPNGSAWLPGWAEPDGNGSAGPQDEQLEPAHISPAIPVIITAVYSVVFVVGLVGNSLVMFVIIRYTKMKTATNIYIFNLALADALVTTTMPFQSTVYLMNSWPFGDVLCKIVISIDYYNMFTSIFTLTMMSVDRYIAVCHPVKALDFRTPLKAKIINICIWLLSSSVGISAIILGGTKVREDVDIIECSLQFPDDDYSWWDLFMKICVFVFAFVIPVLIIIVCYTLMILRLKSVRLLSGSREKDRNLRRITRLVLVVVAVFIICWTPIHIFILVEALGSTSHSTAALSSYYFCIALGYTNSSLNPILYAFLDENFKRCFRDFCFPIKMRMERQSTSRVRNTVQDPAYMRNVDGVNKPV

According to patent US4877796A (priority 1986, dated 1989):

Molecular target: opiated K receptor (Cavia porcellus, UniProt P41144)
Experiment: Bond to the opiated K receptor in vitro (displacement of 3H ethylketocyclazocine)
Conditions: read-out: IC50 (50% inhibiting concentration); guinea pigs brains membrane residues, 3H ethylketocyclazocine 1 nM, 25° C. 40 minutes

Structure (SMILES)	IC50
CN1CCC[C@@H]2CCC[C@@H](N(C)C(=O)COc3ccc(Cl)c(Cl)c3)[C@@H]21 (relative stereo)	5.3 nM
CN1CCC[C@@H]2CCC[C@@H](N(C)C(=O)Cc3ccc(Cl)c(Cl)c3)[C@@H]21 (relative stereo)	5.6 nM
